Source: PubChem BioAssay AID862 (The Scripps Research Institute Molecular Screening Center, 2007)
The entries are a selection whose mix differs from that of the whole data set. Calls of active or inactive are those of the source.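 Rule for the calls: active = inhibition above the mean inhibition across all screened compounds plus 3 SD (cut at about 44% in these data); inactive = the rest.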

experiment: IL-6 driven STAT3 reporter inhibitors, primary screen, U3A cells, luciferase, luminescence, MLSCN library (AID 862); settings: IL-6 STAT3-luciferase reporter, at 5.5 µM, hits give high values, host cell line lacks STAT1;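 note: 0% = DMSO only wells and 100% = 100 µM nifuroxazide control wells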

Structure (SMILES)	inhibition
CC(C)(C)OC(=O)N1CCC(Nc2ccccc2)CC1	inactive: -1.5%
CCOc1ncccc1C(=O)NCC1(N2CCOCC2)CCCCC1	inactive: -4.9%
COc1cc(OC)cc(C(=O)NCC2(N3CCOCC3)CCCCC2)c1	inactive: 3.3%
CCC(CO)(C(=O)OC1CN2CCC1CC2)c1ccccc1 (stereo not given)	inactive: 0.7%
CN(C)c1ccc(C(=O)NCC2(N3CCCCC3)CCCCC2)cc1	inactive: -0.8%
CCN1CCC(Nc2cccc(F)c2)CC1	inactive: 7.9%
N#Cc1ccc(C(=O)NCC2(N3CCCCC3)CCCCC2)cc1	inactive: 13.5%
c1ccc(CN2CCC(Nc3ccccc3)CC2)cc1	inactive: -0.1%
COc1ccc(C(=O)NCC2(N3CCOCC3)CCCCC2)cc1OC	inactive: -1.5%
O=C(OC1CN2CCC1CC2)C1c2ccccc2C=Cc2ccccc21 (stereo not given)	inactive: -2%
N/C(=N\O)c1c(N)no[n+]1[O-]	inactive: 12.3%
CC(C)c1ccc(NC2CCN(C(=O)OC(C)(C)C)CC2)cc1	inactive: -17.3%
CN(C)c1cccc(C(=O)NCC2(N3CCCCC3)CCCCC2)c1	inactive: -4.5%
COc1ccc(CN(CCCl)CCCl)cc1Cl	inactive: 1.6%
CN1CCC(Nc2cccc(F)c2)CC1	inactive: -0.3%
N#CC1(Nc2ccccc2)CCN(CCc2ccccc2)CC1	inactive: 2.1%
O=C(NCC1(N2CCCCC2)CCCCC1)c1cccc([N+](=O)[O-])c1	inactive: 4.6%
O=C(NCC1(N2CCOCC2)CCCCC1)c1cc(=O)[nH]c2ccccc12	inactive: -3.1%
COc1ccc(NC2CCN(C(=O)OC(C)(C)C)CC2)cc1	inactive: -3%
CN1CCN(CCOC(=O)C(O)(c2ccccc2)c2ccccc2)CC1	inactive: -5.3%
COc1ccc(NC2CCN(CCc3ccccc3)CC2)c(OC)c1	inactive: 1.3%
COc1ccc(C(=O)NCC2(N3CCCCC3)CCCCC2)c(OC)c1OC	inactive: 2.9%
O=C(OC1CN2CCC1CC2)C1c2ccccc2Oc2ccccc21 (stereo not given)	inactive: 5.1%
CCOC(=O)N1CCC(Nc2ccc(OC)cc2)CC1	inactive: 9.3%
O=C(NCC1(N2CCOCC2)CCCCC1)c1cc2ccccc2o1	inactive: -6.2%
